Measurements: PubChem BioAssay AID932 (The Scripps Research Institute Molecular Screening Center, 2007)
Only a part is listed here, and it is no random draw. Active and inactive are the calls of the source.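 The calls were made as follows: active = activation above the screen-wide mean activation plus 3 SD (cut at about 130% in these data); inactive = the rest.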

Experiment: STAT1 signaling activators, primary screen, cell-based, HTS, luciferase reporter (AID 932);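 also: raw ratio to IFN-gamma control signal so 100% means no change and 0% no light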
Details: NIH 3T3 STAT1-luciferase reporter, IFN-gamma, luminescence; at 5.5 µM; hits give high values; 100% = IFN-gamma alone, no compound

SMILES | activation (% of control)
CP(=O)(OC12CC3CC(CC(C3)C1)C2)OC12CC3CC(CC(C3)C1)C2 | inactive: 88.8%
CCOC(=O)c1ccc(NP(C)(=O)Oc2ccc(Cl)cc2)cc1 (stereo not given) | inactive: 96.1%
CP(=O)(Nc1ccc(Cl)cc1)Oc1ccc(F)cc1 (stereo not given) | inactive: 92.7%
CC(C)(C)c1ccc(OP(C)(=O)O)cc1 | inactive: 103%
COc1ccccc1OP(C)(=O)Nc1ccccc1Br (stereo not given) | inactive: 106%
CN(C)C(=O)c1c([N+](=O)[O-])cc([N+](=O)[O-])cc1[N+](=O)[O-] | inactive: 99.4%
COc1ccc(OP(C)(=O)Nc2ccc(Br)cc2)cc1 (stereo not given) | inactive: 95.5%
CCN(CC)CC(O)COC(=O)C(O)(c1ccccc1)C1CCCCC1 (stereo not given) | inactive: 105%
CCc1ccc(OP(C)(=O)Nc2cccnc2)cc1 (stereo not given) | inactive: 100%
CP(=O)(Oc1ccccc1)N1CCOC1=O (stereo not given) | inactive: 99.9%
COc1ccccc1OP(C)(=O)Nc1c(C)n(C)n(-c2ccccc2)c1=O (stereo not given) | inactive: 94.9%
O=[N+]([O-])c1cc([N+](=O)[O-])c(Nc2ccccn2)c([N+](=O)[O-])c1 | inactive: 71.9%
Cc1c(NP(C)(=O)Oc2ccc(C(C)C)cc2)c(=O)n(-c2ccccc2)n1C (stereo not given) | inactive: 104%
CCc1ccc(OP(C)(=O)O)cc1 | inactive: 95.7%
COc1ccccc1OP(C)(=O)Nc1ccc(C)cc1C (stereo not given) | inactive: 94.7%
CP(=O)(Nc1ccccn1)Oc1ccccc1 (stereo not given) | inactive: 101%
CN(C)CCOC(=O)C(O)(c1ccccc1)C1CCCC1 (stereo not given) | inactive: 96%
COc1ccc(OP(C)(=O)Nc2ccccn2)cc1 (stereo not given) | inactive: 100%
Cc1nc2ccc3ccccc3c2o1.O=[N+]([O-])c1cc([N+](=O)[O-])c(O)c([N+](=O)[O-])c1 | inactive: 105%
CP(=O)(OCCOc1ccccc1)OCCOc1ccccc1 | inactive: 102%
CP(=O)(Nc1ccc(Cl)cc1Cl)Oc1ccccc1 (stereo not given) | inactive: 102%
Cc1cc(C)cc(OP(C)(=O)Nc2cccc(C(F)(F)F)c2)c1 (stereo not given) | inactive: 98.6%
COc1ccc(OP(C)(=O)Nc2ccccc2Br)cc1 (stereo not given) | inactive: 97.2%
COc1ccccc1OP(C)(=O)Nc1ccc(C)c(C)c1 (stereo not given) | inactive: 99%

SMILES | activation (% of control)
CCN(CC)CCCOC(=O)C(O)(c1ccccc1)C1CCCCC1 (stereo not given) | inactive: 98%
CP(=O)(Nc1ccccc1)Oc1ccc(F)cc1 (stereo not given) | inactive: 104%
COc1ccc(OP(C)(=O)Nc2ccc(SC(F)(F)F)cc2)cc1 (stereo not given) | inactive: 100%
CCOC(=O)c1ccc(NP(C)(=O)Oc2ccc(F)cc2)cc1 (stereo not given) | inactive: 104%
O=C(OCCN1CCN(CCOCc2ccccc2)CC1)C(O)(c1ccccc1)c1ccccc1 | inactive: 104%
CC(C)c1ccc(OP(C)(=O)Nc2ccc(SC(F)(F)F)cc2)cc1 (stereo not given) | inactive: 103%
CP(=O)(Nc1ccccc1F)Oc1ccccc1 (stereo not given) | inactive: 107%
CP(=O)(Nc1ccc2c(c1)OCCO2)Oc1ccccc1 (stereo not given) | inactive: 92.9%
Cc1ccccc1NP(C)(=O)Nc1ccccc1C | inactive: 97.7%
CCOP(C)(=S)SCC(=O)NC(C)(CC)C(=O)O (stereo not given) | inactive: 99.1%
O=[N+]([O-])c1cc([N+](=O)[O-])c(NCC2CCS(=O)(=O)C2)c([N+](=O)[O-])c1 (stereo not given) | inactive: 85.4%
COc1ccc(OP(C)(=O)Nc2cccc(Br)c2)cc1 (stereo not given) | inactive: 99.4%
COc1ccc(NP(C)(=O)Oc2ccccc2OC)cc1 (stereo not given) | inactive: 99.1%
CN(C)CCOC(=O)C(O)(c1ccccc1)C1CCCCC1 (stereo not given) | inactive: 92.4%
COc1ccccc1OP(C)(=O)Nc1c(C)cccc1C (stereo not given) | inactive: 96.8%
CN1CCCCC1COC(=O)C1(O)c2ccccc2CCc2ccccc21 (stereo not given) | inactive: 93.2%
CP(=O)(Nc1ccc(SC(F)(F)F)cc1)Oc1ccccc1 (stereo not given) | inactive: 93.9%
CCCOc1ccc(NP(C)(=O)Oc2ccc(Cl)cc2)cc1 (stereo not given) | inactive: 101%
Cc1nc2ccc3ccccc3c2s1.O=[N+]([O-])c1cc([N+](=O)[O-])c(O)c([N+](=O)[O-])c1 | inactive: 110%
O=[N+]([O-])c1cc([N+](=O)[O-])c(-n2nnc3ccccc32)c([N+](=O)[O-])c1 | inactive: 96.6%
CP(=O)(Nc1cccc(Br)c1)Oc1ccccc1 (stereo not given) | inactive: 101%
Cc1cc(C)cc(OP(C)(=O)Nc2ccccn2)c1 (stereo not given) | inactive: 109%
Cc1ccc(C)c(NP(C)(=O)Oc2ccccc2)c1 (stereo not given) | inactive: 104%
Cc1cc(C)cc(OP(C)(=O)Nc2ccc(C)cc2C)c1 (stereo not given) | inactive: 107%

SMILES | activation (% of control)
CCOC(=O)c1ccc(NP(C)(=O)Oc2cc(C)cc(C)c2)cc1 (stereo not given) | inactive: 107%
CC1=NCCc2c1[nH]c1ccccc21.O=[N+]([O-])c1cc([N+](=O)[O-])c(O)c([N+](=O)[O-])c1 | inactive: 91.1%
CCOC(=O)c1ccc(NP(C)(=O)Oc2ccccc2)cc1 (stereo not given) | inactive: 104%
Cc1ccc(NP(C)(=O)Oc2ccccc2)c(C)c1 (stereo not given) | inactive: 93.7%
COc1ccccc1OP(C)(=O)Nc1ccc(C)cc1 (stereo not given) | inactive: 99.7%
COc1ccc(OP(C)(=O)Nc2cccc(F)c2)cc1 (stereo not given) | inactive: 106%
COc1ccccc1OP(C)(=O)Nc1cc(Cl)ccc1C (stereo not given) | inactive: 92.8%
Cc1cc(C)cc(OP(C)(N)=O)c1 (stereo not given) | inactive: 96.3%
Cc1cccc(C)c1OP(C)(N)=O (stereo not given) | inactive: 92.8%
CC(C)(C)c1ccc(OP(C)(=O)Nc2ccc(SC(F)(F)F)cc2)cc1 (stereo not given) | inactive: 96.3%
O=[N+]([O-])c1ccc2c(c1)C=Nc1ccccc1O2 | inactive: 102%
CCN(CC)CCCOC(=O)C(O)(c1ccccc1)c1ccccc1 | inactive: 101%
CCOP(C)(=S)SCC(=O)NC(C)C(=O)O (stereo not given) | inactive: 111%
CCOC(=O)c1ccc(NP(C)(=O)Oc2ccc(OC)cc2)cc1 (stereo not given) | inactive: 97.3%
CP(=O)(Nc1ccccn1)Oc1ccc(Cl)cc1 (stereo not given) | inactive: 93.9%
CP(=O)(Oc1ccccc1)OC(c1ccccc1)C(F)(F)F (stereo not given) | inactive: 84.9%
Cc1cccc(C)c1OP(C)(=O)Nc1ccc(SC(F)(F)F)cc1 (stereo not given) | inactive: 104%
Cc1cc(C)cc(OP(C)(=O)Nc2ccc(SC(F)(F)F)cc2)c1 (stereo not given) | inactive: 104%
CP(=O)(NC(=O)Nc1ccccc1)Oc1ccccc1 (stereo not given) | inactive: 97.7%
CP(=S)(Nn1cnnc1)Oc1ccccc1 (stereo not given) | inactive: 93.8%
COc1ccccc1OP(C)(=O)Nc1ccccc1 (stereo not given) | inactive: 104%
CP(=O)(Nc1ccccc1Br)Oc1ccccc1 (stereo not given) | inactive: 95.4%
